2 molecules from paper PMC10060303, “Interactions of fentanyl with blood platelets and plasma proteins: platelet sensitivity to prasugrel metabolite is not affected by fentanyl under in vitro conditions” (2023) can be followed below.

Sequences of proteins named here, by UniProt entry; tags and fusion partners are left off. Residues count along the entry.
UniProt P04114, 28-4563 limits assumed: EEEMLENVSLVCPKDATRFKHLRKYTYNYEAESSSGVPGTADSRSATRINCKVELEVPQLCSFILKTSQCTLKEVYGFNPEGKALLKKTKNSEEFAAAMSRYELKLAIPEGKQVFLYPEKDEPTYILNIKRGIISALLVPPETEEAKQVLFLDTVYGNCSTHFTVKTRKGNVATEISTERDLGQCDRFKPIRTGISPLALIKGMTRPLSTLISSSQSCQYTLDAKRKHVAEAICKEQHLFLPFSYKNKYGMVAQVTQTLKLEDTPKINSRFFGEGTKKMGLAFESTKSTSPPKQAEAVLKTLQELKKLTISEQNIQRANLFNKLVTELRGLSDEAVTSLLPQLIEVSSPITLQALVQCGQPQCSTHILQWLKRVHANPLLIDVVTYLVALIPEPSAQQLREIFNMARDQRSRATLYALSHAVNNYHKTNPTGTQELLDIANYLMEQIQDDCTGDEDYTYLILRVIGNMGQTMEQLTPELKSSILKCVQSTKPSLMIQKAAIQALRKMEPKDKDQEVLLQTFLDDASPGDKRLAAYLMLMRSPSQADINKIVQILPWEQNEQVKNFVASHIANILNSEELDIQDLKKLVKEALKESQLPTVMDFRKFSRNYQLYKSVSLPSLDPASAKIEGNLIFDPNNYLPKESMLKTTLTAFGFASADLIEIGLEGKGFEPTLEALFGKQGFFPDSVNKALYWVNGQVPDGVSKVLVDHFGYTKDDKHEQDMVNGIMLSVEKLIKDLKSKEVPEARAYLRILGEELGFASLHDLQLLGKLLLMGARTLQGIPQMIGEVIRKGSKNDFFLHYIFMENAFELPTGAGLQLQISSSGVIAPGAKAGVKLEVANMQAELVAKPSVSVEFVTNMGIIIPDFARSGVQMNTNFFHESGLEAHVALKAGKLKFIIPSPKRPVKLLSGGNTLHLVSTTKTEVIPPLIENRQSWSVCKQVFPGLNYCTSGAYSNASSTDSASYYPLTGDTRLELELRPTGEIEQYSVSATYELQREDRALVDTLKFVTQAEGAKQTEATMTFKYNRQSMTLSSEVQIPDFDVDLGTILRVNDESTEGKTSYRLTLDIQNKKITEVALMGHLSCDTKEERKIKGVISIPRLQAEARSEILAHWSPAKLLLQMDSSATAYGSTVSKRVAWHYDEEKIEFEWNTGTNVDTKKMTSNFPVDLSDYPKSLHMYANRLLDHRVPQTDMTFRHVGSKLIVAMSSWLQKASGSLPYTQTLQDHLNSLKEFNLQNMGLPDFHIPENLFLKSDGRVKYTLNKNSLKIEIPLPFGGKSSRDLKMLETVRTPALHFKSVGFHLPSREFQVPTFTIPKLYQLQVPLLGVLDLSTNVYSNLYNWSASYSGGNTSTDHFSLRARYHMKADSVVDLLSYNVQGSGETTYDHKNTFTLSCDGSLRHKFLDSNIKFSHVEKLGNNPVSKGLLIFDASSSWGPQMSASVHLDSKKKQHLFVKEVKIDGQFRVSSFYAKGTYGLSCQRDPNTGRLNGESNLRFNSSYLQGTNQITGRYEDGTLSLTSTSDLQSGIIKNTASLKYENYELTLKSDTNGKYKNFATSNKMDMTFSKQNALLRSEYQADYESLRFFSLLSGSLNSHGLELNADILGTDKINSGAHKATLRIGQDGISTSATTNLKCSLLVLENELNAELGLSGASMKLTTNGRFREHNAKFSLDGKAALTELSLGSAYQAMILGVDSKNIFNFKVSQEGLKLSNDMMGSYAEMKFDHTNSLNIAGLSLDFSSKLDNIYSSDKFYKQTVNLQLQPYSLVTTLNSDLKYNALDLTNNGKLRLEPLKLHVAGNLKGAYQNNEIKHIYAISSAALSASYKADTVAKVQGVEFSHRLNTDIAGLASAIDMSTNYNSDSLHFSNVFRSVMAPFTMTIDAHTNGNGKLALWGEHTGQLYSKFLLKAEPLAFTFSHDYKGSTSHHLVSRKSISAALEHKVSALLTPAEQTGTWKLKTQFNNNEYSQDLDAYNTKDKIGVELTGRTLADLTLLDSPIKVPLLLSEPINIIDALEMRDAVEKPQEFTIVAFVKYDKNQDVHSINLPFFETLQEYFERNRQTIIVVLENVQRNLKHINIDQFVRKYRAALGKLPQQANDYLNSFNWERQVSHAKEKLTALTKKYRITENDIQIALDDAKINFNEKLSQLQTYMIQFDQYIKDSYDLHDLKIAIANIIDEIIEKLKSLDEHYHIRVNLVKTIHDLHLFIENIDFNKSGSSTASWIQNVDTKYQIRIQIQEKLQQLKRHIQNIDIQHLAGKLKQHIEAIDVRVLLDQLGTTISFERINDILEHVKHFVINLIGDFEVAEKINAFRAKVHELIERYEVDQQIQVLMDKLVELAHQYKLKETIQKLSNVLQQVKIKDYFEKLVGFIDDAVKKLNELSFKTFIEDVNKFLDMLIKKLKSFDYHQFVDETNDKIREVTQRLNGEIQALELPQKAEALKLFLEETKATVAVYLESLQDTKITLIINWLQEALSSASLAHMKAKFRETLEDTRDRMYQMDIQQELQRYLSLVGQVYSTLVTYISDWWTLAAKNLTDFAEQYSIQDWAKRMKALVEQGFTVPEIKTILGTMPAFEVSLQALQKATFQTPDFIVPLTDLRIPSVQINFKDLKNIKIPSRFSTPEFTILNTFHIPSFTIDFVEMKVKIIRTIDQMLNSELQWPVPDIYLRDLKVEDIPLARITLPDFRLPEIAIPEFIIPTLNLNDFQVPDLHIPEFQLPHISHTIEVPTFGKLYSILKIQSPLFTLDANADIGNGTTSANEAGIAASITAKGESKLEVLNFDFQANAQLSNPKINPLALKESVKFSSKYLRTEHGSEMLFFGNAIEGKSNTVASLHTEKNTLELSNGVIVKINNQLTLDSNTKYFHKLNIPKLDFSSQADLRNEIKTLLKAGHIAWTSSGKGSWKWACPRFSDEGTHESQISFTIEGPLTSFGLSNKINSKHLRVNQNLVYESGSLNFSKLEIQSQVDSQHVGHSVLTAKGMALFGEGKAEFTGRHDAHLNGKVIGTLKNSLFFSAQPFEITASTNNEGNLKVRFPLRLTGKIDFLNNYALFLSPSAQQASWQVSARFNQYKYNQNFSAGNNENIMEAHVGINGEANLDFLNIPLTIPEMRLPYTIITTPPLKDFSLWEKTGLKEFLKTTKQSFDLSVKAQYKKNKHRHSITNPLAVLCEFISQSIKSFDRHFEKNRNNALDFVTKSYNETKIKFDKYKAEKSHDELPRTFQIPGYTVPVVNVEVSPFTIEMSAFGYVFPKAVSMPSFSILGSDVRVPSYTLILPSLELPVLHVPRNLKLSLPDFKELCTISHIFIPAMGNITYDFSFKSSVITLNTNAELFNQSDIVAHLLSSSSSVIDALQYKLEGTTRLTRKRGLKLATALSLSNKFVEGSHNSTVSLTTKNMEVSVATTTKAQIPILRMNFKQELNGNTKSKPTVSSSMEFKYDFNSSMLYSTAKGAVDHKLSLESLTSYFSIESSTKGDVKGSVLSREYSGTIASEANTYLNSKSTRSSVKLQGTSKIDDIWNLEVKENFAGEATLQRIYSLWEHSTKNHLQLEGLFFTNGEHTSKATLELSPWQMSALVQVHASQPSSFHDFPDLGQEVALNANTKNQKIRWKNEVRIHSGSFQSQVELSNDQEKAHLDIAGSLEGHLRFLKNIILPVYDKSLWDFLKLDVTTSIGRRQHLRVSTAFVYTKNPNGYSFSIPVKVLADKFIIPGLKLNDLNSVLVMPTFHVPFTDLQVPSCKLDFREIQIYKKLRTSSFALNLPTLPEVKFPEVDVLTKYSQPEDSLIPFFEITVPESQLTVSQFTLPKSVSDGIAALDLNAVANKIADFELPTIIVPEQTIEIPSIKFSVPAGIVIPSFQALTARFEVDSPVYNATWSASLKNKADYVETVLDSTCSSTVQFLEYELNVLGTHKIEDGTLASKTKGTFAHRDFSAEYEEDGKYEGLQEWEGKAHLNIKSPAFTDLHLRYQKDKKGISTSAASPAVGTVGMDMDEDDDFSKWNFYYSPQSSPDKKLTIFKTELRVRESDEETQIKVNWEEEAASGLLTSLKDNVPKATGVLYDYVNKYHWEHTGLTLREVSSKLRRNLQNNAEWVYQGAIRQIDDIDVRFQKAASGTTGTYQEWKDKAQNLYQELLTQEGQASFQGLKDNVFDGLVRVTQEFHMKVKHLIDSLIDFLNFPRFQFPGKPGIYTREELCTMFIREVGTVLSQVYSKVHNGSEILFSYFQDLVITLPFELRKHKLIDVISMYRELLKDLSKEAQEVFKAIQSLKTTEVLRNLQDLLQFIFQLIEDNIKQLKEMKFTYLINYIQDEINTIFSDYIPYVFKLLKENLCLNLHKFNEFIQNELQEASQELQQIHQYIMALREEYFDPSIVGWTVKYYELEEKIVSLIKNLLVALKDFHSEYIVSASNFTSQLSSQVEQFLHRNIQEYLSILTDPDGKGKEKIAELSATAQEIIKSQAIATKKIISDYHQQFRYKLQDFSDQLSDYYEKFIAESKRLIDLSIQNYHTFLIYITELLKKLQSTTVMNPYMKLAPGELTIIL
UniProt P02647, 19-267 limits assumed: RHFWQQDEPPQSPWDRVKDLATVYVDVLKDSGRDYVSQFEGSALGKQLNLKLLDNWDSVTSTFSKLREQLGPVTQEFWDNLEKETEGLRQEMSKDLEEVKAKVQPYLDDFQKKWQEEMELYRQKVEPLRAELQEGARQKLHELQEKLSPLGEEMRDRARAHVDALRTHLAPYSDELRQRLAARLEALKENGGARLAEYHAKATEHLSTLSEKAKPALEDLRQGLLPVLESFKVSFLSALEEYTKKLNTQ

For test [1], the target named is apolipoprotein B-100 (ApoB-100) (Homo sapiens, UniProt P04114). Nature of the test: Surface plasmon resonance binding to immobilized ApoB-100. The note with it: SPR, 25 °C, HBS-EP pH 7.4, ligand ApoB-100. (In general: In SPR one partner is held on a chip, and binding of the other changes the refractive index at the surface.)
For test [2], the target named is apolipoprotein A-1 (ApoA-1) (Homo sapiens, UniProt P02647). Nature of the test: Surface plasmon resonance binding to immobilized ApoA-1. The note with it: SPR, 25 °C, HBS-EP pH 7.4, ligand ApoA-1.
For test [3], the system named is α1-acid glycoprotein (α1-AGP). The test is described as follows: Surface plasmon resonance binding to immobilized α1-AGP. As to conditions: SPR, 25 °C, HBS-EP pH 7.4, ligand α1-AGP.

Some compounds may have been tested in ways that are not shown here.

Broadly, the Kd is the concentration at which binding is half-saturated. Read a low Kd as higher affinity. `CCC(=O)N(c1ccccc1)C1CCN(CCc2ccccc2)CC1`: the Kd in test [1] turned out to be 191 µM.

For `CCC(=O)N(c1ccccc1)C1CCN(CCc2ccccc2)CC1.O=C(O)CC(O)(CC(=O)O)C(=O)O`, in test [2], the ka is reported as 3.42 ± 0.22 × 10^2 M^−1 × s^−1 and the kd is 1.18 ± 1.15 × 10^−6 s^−1. In test [1], the KA is given as 5.41 ± 1.10 × 10^3 M^−1, the ka is reported as 1.34 ± 0.16 × 10^2 M^−1 × s^−1 and the kd is listed as 2.52 ± 0.25 × 10^−2 s^−1. Also, in test [3], the KA was 2.69 ± 4.66 × 10^8 M^−1 and the kd is reported as 4.22 ± 4.44 × 10^−3 s^−1.
